Experiments:
[1] = Solubility in various solvents at room temperature (European Pharmacopoeia 5.11)
Procedure: Method: According to European Pharmacopoeia (EP) paragraph 5.11, the solubility of EBC-1013 was determined in different solvents at room temperature. For methanol, acetonitrile and propylene glycol, in a proper flask, about 20 mg of EBC-1013 was accurately weighed. For all other solvents, in a proper flask, about 10 mg of EBC-1013 was accurately weighed.
The solubility of 10 mg batches of EBC-1013 crystalline form I in various solvents was analysed.

[2] = Dynamic Vapor Sorption (DVS) / hygroscopicity; conditions: for Change in Mass (%): 25 °C; for hygroscopicity / uptake of water: general statement
Procedure: DVS Intrinsic1 system (Surface Measurement Systems Ltd UK) with Intrinsic Control Software and software DVS Analysis Suite for elaboration.
The analysis was run at a fixed temperature of 25±0.1 °C.
The sample was dried for 6 hours under a continuous flow of dry air (Relative Humidity, RH<0.1%) to establish the dry mass (preconditioning step).
The relative humidity was then increased from 0% to 90% RH (in 10% RH steps) and then decreased to 0% RH in a similar way, until the completion of two full sorption/desorption cycles. The instrument was run in a dm/dt mode (mass variation over time variation) and a fixed dm/dt value of 0.002%/min was selected, in order to let equilibrium to be reached at each step.
A maximum dm/dt stage time of 3 hours along with minimum dm/dt stability duration of one hour were chosen. In the last step the samples were kept for 3 hours under a flow of dry air necessary for the weight equilibration.
The hygroscopicity of the sample is determined using the following equation:
Weight change=100×[(W2−W1)/W1]
Where: • W1=weight of sample at the start of the experiment (25 °C, 40% RH) • W2=weight of sample at 25 °C at 80% RH in the first absorption cycle • (see V. Murikipudi et al., Pharmaceutical Development and Technology, 2013; 18(2): 348-358)

[3] = Thermogravimetric analysis (TG)
Procedure: The analyses were performed using a Mettler-Toledo TGA/DSC3+ simultaneous system with autosampler, using closed aluminium crucibles (100 μl volume) with a pinhole. The TG/DSC signals were recorded from 30 to 250 °C with linear heating rate (10 °C/min) under a 150 ml/min nitrogen flow. About 10 mg of powder was used for each measurement.

[4] = Accelerated stability studies (storage, HPLC assay, water content, impurities, XRPD)
Procedure: Instrument: The diffraction pattern was recorded with a Bruker D8-Advance diffractometer.
• Tube anode: Cu • Generator tension (kV): 40 • Generator current (mA): 40 • Wavelengths α1 and α2 (Å): 1.54056, 1.54439 • Intensity ratio (α2/α1): 0.500 • Spinner: off • Angular range (2θ°): 3.00-50.00 • Step size (2θ°): 0.020 • Time per step (sec): 0.50
The purity of the reference material was determined by High Performance Liquid Chromatography (HPLC).
Instrument: UHPLC Agilent 1290 Infinity II (dwell volume<150 μl, max system pressure 18000 psi) equipped with G7117A DAD Detector, Thermostated Column Compartment and Cooling Sample Manager Compartment.
• Column: Halo RP-Amide (150×4.6 mm, 2.7 μm; P/N: 92814-707) • Flow: 1.0 ml/min—Injection Volume: 10.0 μl • Column Temperature: 10 °C—Detector Wavelength: 249 nm • Sample Concentration: 1 mg/ml in Acetonitrile • Solvent A: Water+0.1% formic acid/THF 95/5 (V/V) • Solvent B: Acetonitrile+0.1% formic acid/THF 95/5 (V/V)
EBC-1013 crystalline form I and amorphous EBC-1013 were subjected to accelerated stability studies, being assayed after storage for 1 month at 2-8 °C, 25 °C at 60% relative humidity, and at 40 °C at 75% relative humidity. Data for EBC-1013 crystalline form I was also collected at 3 months.

[5] = General statements on stability and glass transition of the solid forms; conditions: general statement

For CCCCCC(=O)O[C@@H]1[C@@H](C)[C@@]2(O)[C@H]([C@@H]3C(C)(C)[C@]13OC(=O)CCCCC)[C@@H]1O[C@]1(CO)[C@@H](O)[C@]1(O)C(=O)C(C)=C[C@H]12 [Form I], the “Approximate volume of solvent in ml per g of solute” value ([1]; Acetone) was “From 1 to 10: 10 ml per g of solute”, the Solubility ([1]; Acetone) was “Freely soluble (From 1 to 10)” and the Volume ([1]; Acetone) was 0.1 mL. The “Approximate volume of solvent in ml per g of solute” value ([1]; Acetonitrile) was “From 30 to 100: 99 ml per g of solute”, the Solubility ([1]; Acetonitrile) was “Sparingly soluble (From 30 to 100)” and the Volume ([1]; Acetonitrile) was 2 mL. The “Approximate volume of solvent in ml per g of solute” value ([1]; Ethanol) was “From 1 to 10: 10 ml per g of solute”, the Solubility ([1]; Ethanol) was “Freely soluble (From 1 to 10)” and the Volume ([1]; Ethanol) was 0.1 mL. For the same compound, the “Approximate volume of solvent in ml per g of solute” value ([1]; Ethyl Acetate) was “From 1 to 10: 9 ml per g of solute”, the Solubility ([1]; Ethyl Acetate) was “Freely soluble (From 1 to 10)” and the Volume ([1]; Ethyl Acetate) was 0.1 mL. The “Approximate volume of solvent in ml per g of solute” value ([1]; Methanol) was “From 100 to 1000: 938 ml per g of solute”, the Solubility ([1]; Methanol) was “Slightly soluble (From 100 to 1000)” and the Volume ([1]; Methanol) was 20 mL. The “Approximate volume of solvent in ml per g of solute” value ([1]; Propylene glycol) was “From 10 to 30: 14 ml per g of solute”, the Solubility ([1]; Propylene glycol) was “Soluble (From 10 to 30)” and the Volume ([1]; Propylene glycol) was 0.3 mL. For the same compound, the “Approximate volume of solvent in ml per g of solute” value ([1]; Water) was “More than 10000: 11100 ml per g of solute”, the Solubility ([1]; Water) was “Practically” and the Volume ([1]; Water) was 110 mL. For the same compound, the “Approximate volume of solvent in ml per g of solute” value ([1]; n-Heptane) was “More than 10000: 10967 ml per g of solute”, the Solubility ([1]; n-Heptane) was “Practically” and the Volume ([1]; n-Heptane) was 110 mL. For the same compound, the hygroscopicity classification [2] was “not hygroscopic”, the “Change in Mass (%)” value ([2]; 30% relative humidity) was 0.0% and the “Change in Mass (%)” value ([2]; 60% relative humidity) was 0.02%. The “Change in Mass (%)” value ([2]; 90% relative humidity) was 0.08%, the “hygroscopicity / uptake of water” value ([2]; listed as Crystalline form I) was “low hygroscopicity” and the “hygroscopicity / uptake of water” value ([2]; listed as form I crystalline form) was “relatively low uptake of water”. For the same compound, the “TG loss of weight” value ([3]; 10 °C/min, typical batch) was “less than 0.01%”, the “TG loss of mass” value ([3]; during heating to 100 °C) was “low loss of mass” and the Appearance ([4]; 1 month 2-8 °C) was “Off-white”. The “HPLC Assay” value ([4]; 1 month 2-8 °C) was 99.0, the “HPLC Assay a.s.f.” value ([4]; 1 month 2-8 °C) was 99.1 and the Total impurities ([4]; 1 month 2-8 °C) was 0.05. For the same compound, the “Water content (KF Coulometric)” value ([4]; 1 month 2-8 °C) was 0.03, the “XRPD (solid form on storage)” value ([4]; 1 month 2-8 °C) was “Form I” and the Appearance ([4]; 1 month 25 °C 60% RH) was “Off-white”. For the same compound, the “HPLC Assay” value ([4]; 1 month 25 °C 60% RH) was 99.7, the “HPLC Assay a.s.f.” value ([4]; 1 month 25 °C 60% RH) was 99.8 and the Total impurities ([4]; 1 month 25 °C 60% RH) was <0.05. For the same compound, the “Water content (KF Coulometric)” value ([4]; 1 month 25 °C 60% RH) was 0.03, the “XRPD (solid form on storage)” value ([4]; 1 month 25 °C 60% RH) was “Form I” and the Appearance ([4]; 1 month 40 °C 75% RH) was “Off-white”. The “HPLC Assay” value ([4]; 1 month 40 °C 75% RH) was 99.5, the “HPLC Assay a.s.f.” value ([4]; 1 month 40 °C 75% RH) was 99.5 and the Total impurities ([4]; 1 month 40 °C 75% RH) was <0.05. The “Water content (KF Coulometric)” value ([4]; 1 month 40 °C 75% RH) was 0.04, the “XRPD (solid form on storage)” value ([4]; 1 month 40 °C 75% RH) was “Form I” and the Appearance ([4]; 3 months 2-8 °C) was “Off-white”. The “HPLC Assay” value ([4]; 3 months 2-8 °C) was 101.1, the “HPLC Assay a.s.f.” value ([4]; 3 months 2-8 °C) was 101.2 and the Total impurities ([4]; 3 months 2-8 °C) was <0.05. The “Water content (KF Coulometric)” value ([4]; 3 months 2-8 °C) was 0.08, the “XRPD (solid form on storage)” value ([4]; 3 months 2-8 °C) was “Form I” and the Appearance ([4]; 3 months 25 °C 60% RH) was “Off-white”. The “HPLC Assay” value ([4]; 3 months 25 °C 60% RH) was 98.8, the “HPLC Assay a.s.f.” value ([4]; 3 months 25 °C 60% RH) was 98.9 and the Total impurities ([4]; 3 months 25 °C 60% RH) was 0.11. The “Water content (KF Coulometric)” value ([4]; 3 months 25 °C 60% RH) was 0.11, the “XRPD (solid form on storage)” value ([4]; 3 months 25 °C 60% RH) was “Form I” and the Appearance ([4]; 3 months 40 °C 75% RH) was “Off-white”. The “HPLC Assay” value ([4]; 3 months 40 °C 75% RH) was 98.3, the “HPLC Assay a.s.f.” value ([4]; 3 months 40 °C 75% RH) was 98.4 and the Total impurities ([4]; 3 months 40 °C 75% RH) was 0.06. The “Water content (KF Coulometric)” value ([4]; 3 months 40 °C 75% RH) was 0.13, the “XRPD (solid form on storage)” value ([4]; 3 months 40 °C 75% RH) was “Form I” and the Appearance ([4]; T0) was “Off-white”. For the same compound, the “HPLC Assay” value ([4]; T0) was 99.7, the “HPLC Assay a.s.f.” value ([4]; T0) was 99.8 and the Total impurities ([4]; T0) was 0.14. For the same compound, the “Water content (KF Coulometric)” value ([4]; T0) was 0.04, the “XRPD (solid form on storage)” value ([4]; T0) was “Form I” and the stability on storage ([4]; up to 3 months, including higher temperatures and higher relative humidity) was “stable”. The “stability” value ([5]; listed as Crystalline form I) was “good stability”.
In the case of CCCCCC(=O)O[C@@H]1[C@@H](C)[C@@]2(O)[C@H]([C@@H]3C(C)(C)[C@]13OC(=O)CCCCC)[C@@H]1O[C@]1(CO)[C@@H](O)[C@]1(O)C(=O)C(C)=C[C@H]12 [Amorphous], the “hygroscopicity / uptake of water” value ([2]; listed as amorphous material) is reported as “hygroscopicity”, the Degradation temperature ([3]; TG, 10K/min) is reported as “above 260 °C” and the TG weight loss ([3]; range 25-80 °C, 10K/min) is reported as 0.39%. For the same compound, the Appearance ([4]; 1 month 2-8 °C) was “Pale yellow”, the “HPLC Assay” value ([4]; 1 month 2-8 °C) was 95.2 and the “HPLC Assay a.s.f.” value ([4]; 1 month 2-8 °C) was 95.5. The Total impurities ([4]; 1 month 2-8 °C) was 0.73, the “Water content (KF Coulometric)” value ([4]; 1 month 2-8 °C) was 0.29 and the “XRPD (solid form on storage)” value ([4]; 1 month 2-8 °C) was “Amorphous”. For the same compound, the Appearance ([4]; 1 month 25 °C 60% RH) was “Orange”, the “HPLC Assay” value ([4]; 1 month 25 °C 60% RH) was 96.1 and the “HPLC Assay a.s.f.” value ([4]; 1 month 25 °C 60% RH) was 96.2. For the same compound, the Total impurities ([4]; 1 month 25 °C 60% RH) was 0.68, the “Water content (KF Coulometric)” value ([4]; 1 month 25 °C 60% RH) was 0.13 and the “XRPD (solid form on storage)” value ([4]; 1 month 25 °C 60% RH) was “Amorphous”. For the same compound, the Appearance ([4]; 1 month 40 °C 75% RH) was “Pale yellow”, the “HPLC Assay” value ([4]; 1 month 40 °C 75% RH) was 95.9 and the “HPLC Assay a.s.f.” value ([4]; 1 month 40 °C 75% RH) was 96.2. The Total impurities ([4]; 1 month 40 °C 75% RH) was 0.60, the “Water content (KF Coulometric)” value ([4]; 1 month 40 °C 75% RH) was 0.21 and the “XRPD (solid form on storage)” value ([4]; 1 month 40 °C 75% RH) was “Amorphous”. For the same compound, the Appearance ([4]; T0) was “Pale yellow”, the “HPLC Assay” value ([4]; T0) was 96.2 and the “HPLC Assay a.s.f.” value ([4]; T0) was 96.4. The Total impurities ([4]; T0) was 0.68, the “Water content (KF Coulometric)” value ([4]; T0) was 0.17 and the “XRPD (solid form on storage)” value ([4]; T0) was “Amorphous”. For the same compound, the “glass-transition temperature” value [5] was “low” and the “stability” value ([5]; listed as amorphous material) was “limited chemical and physical stability”.
In the case of CCCCCC(=O)C[C@]12C(C3[C@@H]4O[C@]4(CO)[C@@H](O)[C@]4(O)C(=O)C(C)=CC4[C@@]3(O)[C@H](C)[C@H]1OC(=O)CCCCC)C2(C)C (stereo partly shown), the “Change in Mass (%)” value ([2]; 30% relative humidity) is reported as 0.59%, the “Change in Mass (%)” value ([2]; 60% relative humidity) is reported as 1.35% and the “Change in Mass (%)” value ([2]; 90% relative humidity) is reported as 2.03%. For the same compound, the “TG loss of weight” value ([3]; associated with the transition at about 80 °C) was 2.22%, the “TG loss of weight” value ([3]; associated with the transition, listed as crystalline form IIA of EBC-1013) was 1.64% and the “TG loss of weight” value ([3]; associated with the transition, listed as crystalline form IIC) was 1.40%. The “TG loss of weight” value ([3]; during heating to 100 °C) was 2.22%.

From patent publication US20260384404A1, “CRYSTALLINE FORMS, AND PROCESSES FOR THEIR PRODUCTION” (published 2026)
